Three molecules from ChEMBL document CHEMBL3994631, “Design, synthesis, structure-activity relationship and mechanism of action studies of a series of 4-chloro-1-phthalazinyl hydrazones as a potent agent against Leishmania braziliensis” (Eur J Med Chem, 2017) can be followed below.

Structures are written as SMILES.

The nature of the assay: Selectivity index, ratio of LC50 for mouse BMDM to EC50 for Leishmania braziliensis MHOM/CO/87/UA301 promastigote forms.

Regarding `CCCCCCCCCCCCCCCCOP(=O)([O-])OCC[N+](C)(C)C` [MILTEFOSINE], the Selectivity Index came to 5.
On to `O=[N+]([O-])c1ccc(C=NNc2nnc(Cl)c3ccccc23)o1`, for which the Selectivity Index turned out to be 117.
With `O=[N+]([O-])c1ccc(C=NNc2nnc(Cl)c3ccccc23)s1` the figure was < 3.
